38 compounds from PubChem BioAssay AID463195 (Sanford-Burnham Center for Chemical Genomics, 2010) can be followed below.

Only a part is listed here, and it is no random draw. The source made the active and inactive calls.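 Rule for the calls: active = inhibition of 40% or more at the single tested concentration; inactive = the rest.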

As usually defined, the inhibition is the relative decrease from the control value, in per cent.

This assay in a line: growth inhibitors of isogenic TIM10 control yeast, primary screen, counter-screen for tim10-1 yeast inhibitor project, luminescence, uHTS (AID 463195).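 Note: wild-type TIM10 isogenic control strain grown at permissive 25 °C; 0% = DMSO yeast wells and 100% = minimal medium wells without yeast.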 Particulars: S. cerevisiae TIM10 strain growth, BacTiter-Glo luminescence, 24 h; at 10 µM; active compounds read high. (In general: Counterscreens check selectivity or assay interference.)
Consider `CN1CCN(CCOC(=O)C(O)(c2ccccc2)c2ccccc2)CC1`, for which the inhibition was inactive: 2.44%.

On to `CC(C)c1ccc(C(=O)NCC2(N3CCOCC3)CCCCC2)cc1`, for which the inhibition is inactive: 21%.

Turning to `COc1ccc(NC2CCN(C(=O)OC(C)(C)C)CC2)cc1`, the inhibition is inactive: 9.53%.

In the case of `COc1cc(C(=O)NCC2(N3CCCCC3)CCCCC2)ccc1OC(F)F`, the inhibition is inactive: -0.026%.

As for `O=C(NCC1(N2CCOCC2)CCCCC1)c1cc(=O)[nH]c2ccccc12`, the inhibition was inactive: -13.2%.

Turning to `O=C(NCC1(N2CCCCC2)CCCCC1)c1ccc(OC(F)F)cc1`, the inhibition was inactive: -0.025%.

Regarding `O=C(NCC1(N2CCCCC2)CCCCC1)c1cccc([N+](=O)[O-])c1`, the inhibition is inactive: 2.01%.

For the compound `CSc1ccc(C(=O)NCC2(N3CCOCC3)CCCCC2)cc1`, the inhibition was inactive: 9.49%.

Turning to `N#CC1(Nc2ccccc2)CCN(CCc2ccccc2)CC1`, the inhibition was inactive: -6.04%.

Turning to `CCN1CCC(Nc2ccc(Cl)cc2)CC1`, the inhibition was inactive: -12.5%.

As to `CCCN1CCC(Nc2cc(OC)cc(OC)c2)CC1`, the inhibition was inactive: -1.77%.

Take `c1ccc(CN2CCC(Nc3ccccc3)CC2)cc1`: the inhibition was inactive: -0.835%.

Regarding `CN(C)C1(CNC(=O)c2cccc(C#N)c2)CCCCC1`, the inhibition is inactive: 1.51%.

Turning to `CC(C)(C)OC(=O)N1CCC(N(C(=O)c2ccccc2)c2ccc(Cl)cc2)CC1`, the inhibition is inactive: 22.3%.

Regarding `N#Cc1ccc(C(=O)NCC2(N3CCCCC3)CCCCC2)cc1`, the inhibition is inactive: 7.24%.

Consider `N/C(=N\O)c1c(N)no[n+]1[O-]`, for which the inhibition was inactive: 0.598%.

For `CCOC(=O)N1CCC(Nc2ccc(C)cc2)CC1`, the inhibition was inactive: -5.14%.

Consider `CCc1cc(C(=O)NCC2(N3CCCCC3)CCCCC2)sc1C`, for which the inhibition is inactive: -8.15%.

Take `O=C(OC1CN2CCC1CC2)C1c2ccccc2C=Cc2ccccc21` (stereo not drawn): the inhibition is inactive: -3.78%.

For the compound `O=C(NCC1(N2CCOCC2)CCCCC1)c1cc(Br)ccc1Cl`, the inhibition is inactive: 1.79%.

For the compound `COc1cc(C(=O)NCC2(N3CCOCC3)CCCCC2)cc(OC)c1C`, the inhibition was inactive: 11%.

As for `COc1ccc(C(=O)NCC2(N3CCOCC3)CCCCC2)cc1OC`, the inhibition is inactive: 6.45%.

With `CCC(CO)(C(=O)OC1CN2CCC1CC2)c1ccccc1` (stereo not drawn), the inhibition was inactive: -2.62%.

Consider `COc1cc(OC)cc(C(=O)NCC2(N3CCOCC3)CCCCC2)c1`, for which the inhibition is inactive: -6.28%.

For the compound `COc1cccc(C(=O)N(c2cc(C)cc(C)c2)C2CCN(C(=O)OC(C)(C)C)CC2)c1`, the inhibition is inactive: 1.03%.

In the case of `CCCOc1ccc(C)cc1CN(CCCl)CCCl`, the inhibition is inactive: -5.76%.

Take `CN1CCC(Nc2ccc(Cl)cc2)CC1`: the inhibition was inactive: 3.9%.

In the case of `CN1CCC(Nc2ccc(F)c(Cl)c2)CC1`, the inhibition was inactive: -5.24%.

Turning to `CCOc1ncccc1C(=O)NCC1(N2CCOCC2)CCCCC1`, the inhibition was inactive: 22.2%.

In the case of `CCCOc1ccc(C(=O)NCC2(N(C)C)CCCCC2)cc1`, the inhibition is inactive: 0.71%.

Turning to `O=C(O)C1(Nc2ccccc2)CCN(Cc2ccccc2)CC1`, the inhibition is inactive: -27.6%.

Regarding `CC(C)(C)OC(=O)N1CCC(Nc2ccccc2)CC1`, the inhibition is inactive: 1.12%.

Turning to `CCN1CCC(Nc2cccc(F)c2)CC1`, the inhibition is inactive: 4.35%.

In the case of `CN(C)c1ccc(C(=O)NCC2(N3CCCCC3)CCCCC2)cc1`, the inhibition is inactive: -18%.

On to `O=C(NCC1(N2CCCCC2)CCCCC1)c1ccco1`, for which the inhibition is inactive: 7.62%.

In the case of `COc1cc(OC)cc(C(=O)NCC2(N3CCCCC3)CCCCC2)c1`, the inhibition is inactive: -6.57%.

For the compound `Fc1ccccc1NC1CCN(Cc2ccccc2)CC1`, the inhibition is inactive: -8.69%.

Take `Cc1ccc(C(=O)NCC2(N3CCCCC3)CCCCC2)o1`: the inhibition is inactive: 12.6%.
